Results from publication PMC4004761 (Journal of medicinal chemistry, 2013).
Marks after values point to notes of the source that are not given here.

What follows are molecules tested on central benzodiazepine receptors. Settings: 10 μM.

SMILES | Affinity for central benzodiazepine receptors
NS(=O)(=O)NC[C@H]1COc2cc(Cl)ccc2O1 [compound 4, (2S)-(–)-N-((6-Chloro-2,3-dihydrobenzo[1,4]dioxin-2-yl)methyl)sulfamide] | virtually no affinity

These molecules were tested on kindled seizures (seizure score, after-discharge duration). Settings: rat, i.p.

SMILES | Mean seizure score | Time of decrease in seizure score [min] | Time of peak activity [min]
NS(=O)(=O)NC[C@H]1COc2cc(Cl)ccc2O1 [compound 4, (2S)-(–)-N-((6-Chloro-2,3-dihydrobenzo[1,4]dioxin-2-yl)methyl)sulfamide] | 2.1 ± 0.5 | 45 | 165

The molecules below were run on chloride ion channels. Settings: 10 μM.

SMILES | Affinity for chloride ion channels
NS(=O)(=O)NC[C@H]1COc2cc(Cl)ccc2O1 [compound 4, (2S)-(–)-N-((6-Chloro-2,3-dihydrobenzo[1,4]dioxin-2-yl)methyl)sulfamide] | virtually no affinity

Each molecule was assayed on maximal electroshock seizure (hind-limb tonic extension). Settings: mouse, 100 mg/kg po, 0.5 h.

SMILES | MES, po, effect (animals responding / animals tested)
NS(=O)(=O)NCC1Oc2ccccc2O1 [11a, N-((Benzo[1,3]dioxol-2-yl)methyl)sulfamide] | 5/5
NS(=O)(=O)NCCC1COc2ccccc2O1 (stereo not drawn) [compound 9, N-(2-(2,3-Dihydrobenzo[1,4]dioxin-2-yl)ethyl)sulfamide] | 0.5, 0/5; 2, 0/5
NS(=O)(=O)NC[C@H]1COc2ccc(Cl)cc2O1 [10b, (2S)-(–)-N-((7-Chloro-2,3-dihydrobenzo[1,4]dioxin-2-yl)methyl)sulfamide] | 0/5
NS(=O)(=O)NC[C@H]1COc2cc(Cl)ccc2O1 [compound 4, (2S)-(–)-N-((6-Chloro-2,3-dihydrobenzo[1,4]dioxin-2-yl)methyl)sulfamide] | 0/10
NS(=O)(=O)NCC1CCc2ccccc2O1 (stereo not drawn) [compound 8, N-(Chroman-2-ylmethyl)sulfamide] | 1/5
NS(=O)(=O)NC[C@H]1COc2cccc(Cl)c2O1 [10c] | 1/5
NS(=O)(=O)NC[C@H]1COc2cc(Cl)c(Cl)cc2O1 [10h, (2S)-(–)-N-((6,7-Dichloro-2,3-dihydrobenzo[1,4]dioxin-2-yl)methyl)sulfamide] | 0/5
NS(=O)(=O)NC[C@H]1COc2c(F)cccc2O1 [10d] | 2/5

Same assay, conditions: mouse, 100 mg/kg po, 2 h

SMILES | MES, po, effect (animals responding / animals tested)
NS(=O)(=O)NCC1Oc2ccccc2O1 [11a, N-((Benzo[1,3]dioxol-2-yl)methyl)sulfamide] | 0/5
NS(=O)(=O)NCCC1COc2ccccc2O1 (stereo not drawn) [compound 9, N-(2-(2,3-Dihydrobenzo[1,4]dioxin-2-yl)ethyl)sulfamide] | 0.5, 0/5; 2, 0/5
NS(=O)(=O)NC[C@H]1COc2ccc(Cl)cc2O1 [10b, (2S)-(–)-N-((7-Chloro-2,3-dihydrobenzo[1,4]dioxin-2-yl)methyl)sulfamide] | 4/5
NS(=O)(=O)NC[C@H]1COc2cc(Cl)ccc2O1 [compound 4, (2S)-(–)-N-((6-Chloro-2,3-dihydrobenzo[1,4]dioxin-2-yl)methyl)sulfamide] | 2/10
NS(=O)(=O)NCC1CCc2ccccc2O1 (stereo not drawn) [compound 8, N-(Chroman-2-ylmethyl)sulfamide] | 0/5
NS(=O)(=O)NC[C@H]1COc2cccc(Cl)c2O1 [10c] | 0/5
NS(=O)(=O)NC[C@H]1COc2cc(Cl)c(Cl)cc2O1 [10h, (2S)-(–)-N-((6,7-Dichloro-2,3-dihydrobenzo[1,4]dioxin-2-yl)methyl)sulfamide] | 3/5
NS(=O)(=O)NC[C@H]1COc2c(F)cccc2O1 [10d] | 0/5

Same assay, conditions: mouse, 300 mg/kg ip, 0.5 h

SMILES | MES, ip, effect (animals responding / animals tested)
NS(=O)(=O)NCC1Oc2ccccc2O1 [11a, N-((Benzo[1,3]dioxol-2-yl)methyl)sulfamide] | 0.5, 3/3
NS(=O)(=O)NCC1COc2ccccc2OC1 [compound 12, N-((3,4-Dihydro-2H-benzo[b][1,4]dioxepin-3-yl)methyl)sulfamide] | 0.5, 2/3

Same assay, conditions: mouse, 300 mg/kg po, 0.5 h

SMILES | MES, po, effect (animals responding / animals tested)
NS(=O)(=O)NC[C@H]1COc2cc(F)ccc2O1 [10e, (2S)-(–)-N-((6-Fluoro-2,3-dihydrobenzo[1,4]dioxin-2-yl)methyl)sulfamide] | 4/5
NS(=O)(=O)NCCC1COc2ccccc2O1 (stereo not drawn) [compound 9, N-(2-(2,3-Dihydrobenzo[1,4]dioxin-2-yl)ethyl)sulfamide] | 5/5
NS(=O)(=O)NCC1CCc2ccccc2O1 (stereo not drawn) [compound 8, N-(Chroman-2-ylmethyl)sulfamide] | 3/3
Cc1ccc2c(c1)O[C@@H](CNS(N)(=O)=O)CO2 [10i, (2S)-(–)-N-((7-Methyl-2,3-dihydrobenzo[1,4]dioxin-2-yl)methyl)sulfamide] | 0.5, 0/5; 2, 0/5 ^g
NS(=O)(=O)NC[C@H]1COc2cc(Br)ccc2O1 [10f] | 0/5
CN(CC1COc2ccccc2O1)S(N)(=O)=O (racemic) [compound 6, N-((2,3-Dihydrobenzo[1,4]dioxin-2-yl)methyl)-N-methylsulfamide] | 3/3
NS(=O)(=O)NC[C@H]1COc2c(F)cccc2O1 [10d] | 4/5

Same assay, conditions: mouse, 300 mg/kg po, 2 h

SMILES | MES, po, effect (animals responding / animals tested)
NS(=O)(=O)NC[C@H]1COc2cc(F)ccc2O1 [10e, (2S)-(–)-N-((6-Fluoro-2,3-dihydrobenzo[1,4]dioxin-2-yl)methyl)sulfamide] | 5/5
NS(=O)(=O)NCCC1COc2ccccc2O1 (stereo not drawn) [compound 9, N-(2-(2,3-Dihydrobenzo[1,4]dioxin-2-yl)ethyl)sulfamide] | 0/5
NS(=O)(=O)NC[C@H]1COc2cc(Cl)ccc2O1 [compound 4, (2S)-(–)-N-((6-Chloro-2,3-dihydrobenzo[1,4]dioxin-2-yl)methyl)sulfamide] | 2, 5/5 ^g
NS(=O)(=O)NCC1CCc2ccccc2O1 (stereo not drawn) [compound 8, N-(Chroman-2-ylmethyl)sulfamide] | 2/3
Cc1ccc2c(c1)O[C@@H](CNS(N)(=O)=O)CO2 [10i, (2S)-(–)-N-((7-Methyl-2,3-dihydrobenzo[1,4]dioxin-2-yl)methyl)sulfamide] | 0.5, 0/5; 2, 0/5 ^g
NS(=O)(=O)NC[C@H]1COc2cc(Br)ccc2O1 [10f] | 5/5
CN(CC1COc2ccccc2O1)S(N)(=O)=O (racemic) [compound 6, N-((2,3-Dihydrobenzo[1,4]dioxin-2-yl)methyl)-N-methylsulfamide] | 1/3
NS(=O)(=O)NC[C@H]1COc2c(F)cccc2O1 [10d] | 5/5

Each molecule was assayed on GABA receptors. Settings: 10 μM.

SMILES | Affinity for GABA receptors
NS(=O)(=O)NC[C@H]1COc2cc(Cl)ccc2O1 [compound 4, (2S)-(–)-N-((6-Chloro-2,3-dihydrobenzo[1,4]dioxin-2-yl)methyl)sulfamide] | virtually no affinity
